This assay concerns the target recombinant human integrin αvβ6 (Homo sapiens (Human), UniProt P06756+P18564). In words: Solid phase integrin αvβ6 binding assay. Conditions: read-out: αvβ6 Inhibition IC50 (nM) - range; IC50 presented in four ranges. As to the method: (§1) Microplates were coated with recombinant human integrin αvβ6 (2 µg/mL) in PBS (100 µL/well 25° C., overnight). The coating solution was removed, washed with wash buffer (0.05% Tween 20; 0.5 mM MnCl2; in 1x TBS). The plate was blocked with 200 µL/well of Block Buffer (1% BSA; 5% sucrose; 0.5 mM MnCl2; in 1x TBS) at 37° C. for 2 h. Dilutions of testing compounds and recombinant TGFβ1 LAP (0.67 µg/mL) in binding buffer (0.05% BSA; 2.5% sucrose; 0.5 mM MnCl2; in 1x TBS) were added. The plate was incubated for 2 hours at 25° C., washed, and incubated for 1 hour with Biotin-Anti-hLAP. Bound antibody was detected by peroxidase-conjugated streptavidin. The IC50 values for testing compounds were calculated by a four-parameter logistic regression.
The compounds tested were compound samples prepared according to procedures described in the Synthetic Examples section, with the stereochemical purity as indicated in the Examples. The IC50 values in Tables B-1 and B-2 are presented in four ranges: below 50 nM; from 50 nM to 250 nM; from above 250 nM to 1000 nM; and above 1000 nM.
as §1, with “A third series of exemplary compounds was selected for testing in the solid phase integrin αvβ6 binding assay. The compounds tested were compound samples prepared according to procedures described in the Synthetic Examples section, with the stereochemical purity as indicated in the Examples. As in Example B1, microplates” for “Microplates”

Amino acid sequences for entries named in this document (tags omitted). Residues count along the entry.
UniProt P06756, 31-889 limits assumed: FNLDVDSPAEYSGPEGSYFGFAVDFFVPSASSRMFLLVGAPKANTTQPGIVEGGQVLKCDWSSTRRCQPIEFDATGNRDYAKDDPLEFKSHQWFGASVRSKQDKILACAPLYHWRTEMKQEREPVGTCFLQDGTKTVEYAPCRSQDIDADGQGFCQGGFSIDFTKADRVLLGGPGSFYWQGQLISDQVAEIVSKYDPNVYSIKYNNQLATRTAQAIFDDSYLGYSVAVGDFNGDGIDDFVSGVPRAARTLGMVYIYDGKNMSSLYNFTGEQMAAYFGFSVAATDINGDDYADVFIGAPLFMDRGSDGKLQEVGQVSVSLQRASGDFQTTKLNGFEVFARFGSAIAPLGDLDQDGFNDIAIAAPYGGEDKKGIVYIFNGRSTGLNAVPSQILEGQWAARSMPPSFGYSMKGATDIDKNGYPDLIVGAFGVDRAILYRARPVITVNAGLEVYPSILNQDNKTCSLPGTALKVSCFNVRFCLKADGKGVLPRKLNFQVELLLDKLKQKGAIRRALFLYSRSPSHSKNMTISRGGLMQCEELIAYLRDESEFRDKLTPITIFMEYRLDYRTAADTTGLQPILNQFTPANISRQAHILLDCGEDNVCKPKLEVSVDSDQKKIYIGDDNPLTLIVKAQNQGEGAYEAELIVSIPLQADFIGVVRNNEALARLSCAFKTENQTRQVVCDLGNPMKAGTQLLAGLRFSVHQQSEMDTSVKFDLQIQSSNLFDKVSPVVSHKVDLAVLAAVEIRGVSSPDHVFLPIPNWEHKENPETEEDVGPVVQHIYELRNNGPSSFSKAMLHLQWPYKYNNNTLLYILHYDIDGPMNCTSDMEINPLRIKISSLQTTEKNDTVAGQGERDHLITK
UniProt P06756, 890-992 partner limits assumed: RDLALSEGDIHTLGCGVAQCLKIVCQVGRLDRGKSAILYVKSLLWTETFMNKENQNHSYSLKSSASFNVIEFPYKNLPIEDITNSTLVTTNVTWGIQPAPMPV
UniProt P18564, 22-707 limits assumed: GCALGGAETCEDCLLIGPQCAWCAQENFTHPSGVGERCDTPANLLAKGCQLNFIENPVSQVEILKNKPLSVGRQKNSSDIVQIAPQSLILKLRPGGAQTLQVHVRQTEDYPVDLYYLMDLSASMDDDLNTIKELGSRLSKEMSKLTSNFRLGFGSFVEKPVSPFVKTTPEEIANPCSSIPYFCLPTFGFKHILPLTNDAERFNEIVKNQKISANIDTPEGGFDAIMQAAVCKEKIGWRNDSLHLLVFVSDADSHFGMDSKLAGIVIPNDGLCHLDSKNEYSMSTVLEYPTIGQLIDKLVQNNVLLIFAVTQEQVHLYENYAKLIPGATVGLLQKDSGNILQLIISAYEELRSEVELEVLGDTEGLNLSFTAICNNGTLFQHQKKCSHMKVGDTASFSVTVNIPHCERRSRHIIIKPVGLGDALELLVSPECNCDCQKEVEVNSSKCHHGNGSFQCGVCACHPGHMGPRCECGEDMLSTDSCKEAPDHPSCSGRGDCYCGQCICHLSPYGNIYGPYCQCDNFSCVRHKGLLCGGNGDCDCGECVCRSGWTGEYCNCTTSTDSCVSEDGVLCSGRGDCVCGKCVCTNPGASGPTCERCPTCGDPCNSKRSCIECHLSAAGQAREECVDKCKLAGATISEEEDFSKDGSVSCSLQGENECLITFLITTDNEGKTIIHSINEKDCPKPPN

This note sets out measurements from patent publication US20230293519A1, “INTEGRIN INHIBITORS AND USES THEREOF IN COMBINATION WITH OTHER AGENTS” (Pliant Therapeutics, Inc., priority 2021, published 2023).

Usually IC50 stands for the concentration that gives 50% inhibition.

Where only a bound is given, the exact number is not on record here.

Turning to `CO[C@H](C)CN(CCCCc1ccc2c(n1)NCCC2)CC[C@H](Nc1ncc(Br)cn1)C(=O)O` [compound 86], the IC50 is < 50 nM.

For `CO[C@H](C)CN(CCCCc1ccc2c(n1)NCCC2)CC[C@H](Nc1ncc(C(F)(F)F)cn1)C(=O)O` [compound 85], the IC50 is < 50 nM.

Take `CO[C@H](C)CN(CCCCc1ccc2c(n1)NCCC2)CC[C@H](Nc1ccnc(C(F)(F)F)n1)C(=O)O` [compound 87]: the IC50 is < 50 nM.

Take `CO[C@H](C)CN(CCCCc1ccc2c(n1)NCCC2)CC[C@H](Nc1ccncn1)C(=O)O` [compound 127]: the concentration for half-maximal inhibition (IC50) is < 50 nM.

Consider `COCCN(CCCCc1ccc2c(n1)NCCC2)CCC(Nc1ncnc2cc(C(F)(F)F)ccc12)C(=O)O` (centres unmarked), for which the IC50 fell in the range of 50 to 250 nM.

On to `COCCN(CCCCc1ccc2c(n1)NCCC2)CCC(Nc1ncnc2cccnc12)C(=O)O` (centres unmarked), for which the IC50 is < 50 nM.

`CO[C@H](C)CN(CCCCc1ccc2c(n1)NCCC2)CC[C@H](Nc1ncc(C#N)cn1)C(=O)O` [compound 84]: the IC50 was < 50 nM.

On to `CO[C@H](C)CN(CCCCc1ccc2c(n1)NCCC2)CC[C@H](Nc1cc(-c2ccccc2)ncn1)C(=O)O` [compound 128], for which the IC50 was < 50 nM.
